# Measured values: article PMC8365601, “Terphenyl-Based Small-Molecule Inhibitors of Programmed Cell Death-1/Programmed Death-Ligand 1 Protein–Protein Interaction” (Journal of Medicinal Chemistry, 2021)
# Biological target: PD-1/PD-L1 complex (Homo sapiens, UniProt Q9NZQ7)
# Test: HTRF assay of PD-1/PD-L1 complex dissociation (CisBio);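 further: human PD-L1 at 5 nM with human PD-1 at 50 nM, TR-FRET signal read after 2 h at room temperature, background removed via negative control and scaled to positive control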
# Details: 2 h, read-out: % of the undissociated complex in HTRF
smiles,measurement,value
"Cc1c(-c2ccc(CO)cc2)cccc1-c1ccc2c(c1)OCCO2 [4a, (3′-(Benzo-1,4-dioxan-6-yl)-2′-methyl-[1,1′-biphenyl]-4-yl)methanol]",remaining activity at 5 µM,42%
